{"sequences": {"note": "The chains behind the UniProt entries cited, without tags or fusion partners. Where a name states a change or a piece, a line headed by the entry shows the natural chain unless it says otherwise.", "UniProt Q9GZT9": "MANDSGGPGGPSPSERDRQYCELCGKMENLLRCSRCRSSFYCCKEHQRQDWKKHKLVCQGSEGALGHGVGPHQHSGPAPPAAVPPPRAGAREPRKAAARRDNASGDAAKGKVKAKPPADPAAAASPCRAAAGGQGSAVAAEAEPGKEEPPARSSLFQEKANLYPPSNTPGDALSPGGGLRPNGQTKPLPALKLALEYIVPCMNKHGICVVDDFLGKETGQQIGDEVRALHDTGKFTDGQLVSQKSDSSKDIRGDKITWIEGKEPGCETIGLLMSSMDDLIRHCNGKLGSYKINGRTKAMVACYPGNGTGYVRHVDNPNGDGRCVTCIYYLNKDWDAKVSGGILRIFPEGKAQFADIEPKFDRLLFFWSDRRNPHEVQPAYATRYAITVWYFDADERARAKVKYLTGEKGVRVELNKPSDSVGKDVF"}, "source": "patent US20230159489A1", "about": "“PHD INHIBITOR COMPOUNDS, COMPOSITIONS, AND USE” (Akebia Therapeutics, Inc., priority 2020, published 2023)", "target": "full-length human PHD2 (Homo sapiens, UniProt Q9GZT9)", "test": "TR-FRET assay, enzymatic IC50 against PHD2", "conditions": "read-out: Km of 2-OG for PHD2"}
{"compound": "O=C(O)CCC(=O)C(=O)O", "note": "[Compound 2-OG, 2-oxoglutarate, reference compound]", "values": [{"measurement": "Km", "result": 0.0226, "unit": "µM"}]}
